The chains are these.
B1: hsa-mir-3168 (structured_RNA)
RNA: GGGAAGAGCUAUCGGUCGGCUUAACUGAGGUGUACGAAGUUUCAGCAGACAGCCUGAGUUGGAGGCUCAUCUUCACUUCUUGCUGUGUGCUGAAGCUUCGUGCAC
B2: hsa-mir-885 (structured_RNA)
RNA: GGGAGGAUACGGCACCGAGAGCGAUUUGGGUGUACGAAGUUUCAGCGCCUCUUCUCCAUGAGAGGCGCUGAAGCUUCGUGCAC
B3: hsa-mir-7855 (structured_RNA)
RNA: GGGAAGAUGUUAGUUUGACAACGGAAUCGGUGUACGAAGUUUCAGCUCGGCACUAUUGUGACUGUGCUGAAGCUUCGUGCAC
B4: hsa-mir-374b (structured_RNA)
RNA: GGGAAACCCUAGAUUAUGACGCCAAGUCGGUGUACGAAGUUUCAGCUAAGUGUCCUAGCACUUAGCUGAAGCUUCGUGCAC
B5: hsa-mir-4264 (structured_RNA)
RNA: GGGAAAUUAGCUUUCGGCAUCUGCAGGCGGUGUACGAAGUUUCAGCCAUUGUAACAUGAUAGUGGCUGAAGCUUCGUGCAC
B6: hsa-mir-563 (structured_RNA)
RNA: GGGAAGUUGUGGAUUGGGCGUGCCCUAUGGUGUACGAAGUUUCAGCCUCUGAUGUAAUUAGGUGCUGAAGCUUCGUGCAC
B7: hsa-mir-1208 (structured_RNA)
RNA: GGGAUGAACUCCCGCAGUCGAGUCUAUAGGUGUACGAAGUUUCAGCGGAGACGGGUCUUUCUCGCUGAAGCUUCGUGCAC
B8: hsa-mir-8057 (structured_RNA)
RNA: GGGAAUAGCUGAAAAGUGGGAUUCCUUCGGUGUACGAAGUUUCAGCGGACUUGCGGUUCAGCUGAAGCUUCGUGCAC
B9: hsa-mir-634 (structured_RNA)
RNA: GGGAGAAACAGGUAAAUAAGCCUUUUGUGGUGUACGAAGUUUCAGCGGUGUCAUGCCCCAAGAUAACCGCUGAAGCUUCGUGCAC
B10: hsa-mir-3912 (structured_RNA)
RNA: GGGAAACUUUACUCGGGAGACAUGACCCGGUGUACGAAGUUUCAGCGUUAGUUGUGGACACAUACUAACGCUGAAGCUUCGUGCAC
B11: hsa-mir-3621 (structured_RNA)
RNA: GGGACCACUAUGAGGUGCAGCAUUUAAUGGUGUACGAAGUUUCAGCCAGGGCGGUGCGGCAGCCGCCACCGCUGAAGCUUCGUGCAC
B12: hsa-mir-488 (structured_RNA)
RNA: GGGAAGGUCUAGAAACAUGAGUGCGAGCGGUGUACGAAGUUUCAGCUCAAACAAGUUUCCAAAUUGUUUGAGCUGAAGCUUCGUGCAC
B13: hsa-mir-548au (structured_RNA)
RNA: GGGAAGCAACGACUCGGCGAUGAUCUACGGUGUACGAAGUUUCAGCGCGGUUUUUGCUAUUGGUUUUAAUGGCGCUGAAGCUUCGUGCAC

These results are taken from article PMC7723054.

This is one part of the list.

The target of the first assay is T1, LIN28A (human?, UniProt Q9H9Z2 1-209).
T1 sequence: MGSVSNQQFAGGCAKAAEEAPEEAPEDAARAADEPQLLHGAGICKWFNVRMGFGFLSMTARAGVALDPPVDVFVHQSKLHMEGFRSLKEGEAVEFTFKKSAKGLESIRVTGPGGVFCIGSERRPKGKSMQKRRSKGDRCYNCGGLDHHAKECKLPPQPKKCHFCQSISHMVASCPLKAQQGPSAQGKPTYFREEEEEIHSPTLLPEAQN
Briefly: FOREST: bead pull-down of RNA structure library v1, barcode microarray; U1A/LIN28A: 20 mM HEPES pH 7.5, 80 mM KCl, 20 mM NaCl, 10% glycerol, 2 mM DTT, 0.1 ug/uL BSA, 4 C; BG4/CIRBP/DHX36: 10 mM Tris-HCl pH 7.5, 100 mM KCl (or LiCl),; high values mean tight binding.
For the molecule B1, the binding signal was -0.449 z-score.

As to B2, the binding signal is -0.467 z-score.

B3: the binding signal was -0.454 z-score.

Turning to B4, the binding signal was -0.454 z-score.

Consider B5, for which the binding signal was -0.434 z-score.

In the case of B6, the binding signal is -0.457 z-score.

As for B7, the binding signal is -0.449 z-score.

In the case of B8, the binding signal was -0.453 z-score.

Consider B9, for which the binding signal was -0.465 z-score.

Consider B10, for which the binding signal was -0.452 z-score.

In the case of B11, the binding signal was -0.456 z-score.

Turning to B12, the binding signal was -0.451 z-score.

For the molecule B13, the binding signal is -0.449 z-score.

The next assay has as its target T2, CIRBP (Homo sapiens, UniProt Q14011 1-172).
T2 sequence: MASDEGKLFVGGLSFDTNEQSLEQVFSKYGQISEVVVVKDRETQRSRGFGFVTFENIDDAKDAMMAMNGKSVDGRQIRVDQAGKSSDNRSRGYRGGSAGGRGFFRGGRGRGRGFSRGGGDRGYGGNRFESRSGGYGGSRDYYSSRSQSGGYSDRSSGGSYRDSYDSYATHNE
The assay is described as above.
B1 yielded a binding signal of 0.457 z-score.

As for B2, the binding signal was -0.431 z-score.

Regarding B3, the binding signal was -0.951 z-score.

B4: the binding signal turned out to be 0.911 z-score.

With B5, the binding signal was -0.173 z-score.

As for B6, the binding signal came out at 1.09 z-score.

For the molecule B7, the binding signal is -0.742 z-score.

B8: the binding signal was -1.2 z-score.

As to B9, the binding signal was -0.176 z-score.

For B10, the binding signal was -1.02 z-score.

In the case of B11, the binding signal came out at 0.448 z-score.

Molecule B12 displayed a binding signal of 1.07 z-score.

For the molecule B13, the binding signal is -1.19 z-score.

For another assay, the target named is T3, DHX36 (Homo sapiens, UniProt Q9H2U1 1-1008).
T3 sequence: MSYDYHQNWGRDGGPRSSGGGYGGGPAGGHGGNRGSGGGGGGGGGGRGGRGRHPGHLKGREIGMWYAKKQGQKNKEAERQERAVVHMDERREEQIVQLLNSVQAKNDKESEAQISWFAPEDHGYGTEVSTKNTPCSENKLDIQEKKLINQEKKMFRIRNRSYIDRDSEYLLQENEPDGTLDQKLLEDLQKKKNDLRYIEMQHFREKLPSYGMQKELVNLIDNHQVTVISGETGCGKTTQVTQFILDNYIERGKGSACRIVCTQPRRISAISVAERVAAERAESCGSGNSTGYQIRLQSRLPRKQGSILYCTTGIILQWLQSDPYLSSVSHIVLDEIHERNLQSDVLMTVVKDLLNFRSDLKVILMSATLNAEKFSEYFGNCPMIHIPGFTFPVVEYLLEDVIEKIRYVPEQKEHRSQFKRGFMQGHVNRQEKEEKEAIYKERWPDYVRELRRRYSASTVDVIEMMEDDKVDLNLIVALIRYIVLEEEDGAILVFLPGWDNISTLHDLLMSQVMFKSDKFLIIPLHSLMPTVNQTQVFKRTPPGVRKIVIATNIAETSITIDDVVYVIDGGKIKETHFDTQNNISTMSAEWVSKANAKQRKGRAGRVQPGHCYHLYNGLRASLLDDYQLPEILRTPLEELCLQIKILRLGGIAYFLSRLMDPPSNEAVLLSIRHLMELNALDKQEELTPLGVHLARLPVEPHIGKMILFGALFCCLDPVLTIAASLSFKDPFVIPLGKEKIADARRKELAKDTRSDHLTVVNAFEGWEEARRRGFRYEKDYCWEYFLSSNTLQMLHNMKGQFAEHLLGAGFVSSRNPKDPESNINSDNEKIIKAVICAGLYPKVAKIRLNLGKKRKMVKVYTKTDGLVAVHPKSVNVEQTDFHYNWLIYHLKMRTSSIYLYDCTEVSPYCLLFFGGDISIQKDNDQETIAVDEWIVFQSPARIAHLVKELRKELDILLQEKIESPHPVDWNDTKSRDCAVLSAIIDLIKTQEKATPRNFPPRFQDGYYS
The assay is described as above.
Regarding B1, the binding signal is -0.558 z-score.

In the case of B2, the binding signal is -0.306 z-score.

For the molecule B3, the binding signal is -1.29 z-score.

Consider B4, for which the binding signal is -0.867 z-score.

As to B5, the binding signal was -0.59 z-score.

As for B6, the binding signal was -0.428 z-score.

Molecule B7 yielded a binding signal of 0.321 z-score.

Consider B8, for which the binding signal was -0.991 z-score.

Turning to B9, the binding signal is -0.286 z-score.

The molecule B10 had a binding signal of 0.729 z-score.

On to B11, for which the binding signal is -0.358 z-score.

For the molecule B12, the binding signal amounted to 0.541 z-score.

Regarding B13, the binding signal was -0.71 z-score.
